Nine molecules from article PMC8016950, “Effective rational humanization of a PASylated anti-galectin-3 Fab for the sensitive PET imaging of thyroid cancer in vivo” (Scientific Reports, 2021) can be followed below.

The chains behind the UniProt entries cited, without tags or fusion partners. Where a name states a change or a piece, a line headed by the entry shows the natural chain unless it says otherwise.
UniProt P17931, whole entry: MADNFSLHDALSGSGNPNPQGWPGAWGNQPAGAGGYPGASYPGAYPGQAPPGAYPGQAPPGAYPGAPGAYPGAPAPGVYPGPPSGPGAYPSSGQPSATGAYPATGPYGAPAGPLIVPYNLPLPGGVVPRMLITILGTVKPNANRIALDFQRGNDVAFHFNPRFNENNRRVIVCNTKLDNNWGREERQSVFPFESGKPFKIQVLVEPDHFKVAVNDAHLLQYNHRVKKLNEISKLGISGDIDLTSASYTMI

For assay [1], the target named is T1, full length human galectin-3 (hGal3), Cys173 mutated to Thr (Homo sapiens, UniProt P17931, Cys173 mutated to Thr).
T1 construct: human galectin-3, UniProtKB P17931, full length, unpaired Cys173 mutated to Thr; also called recombinant hGal3; full length recombinant hGal3
Put plainly: SPR; Fab immobilized, hGal3 as analyte at increasing concentrations (single cycle kinetics); 1:1 binding model. The note with it: both partners purified. Background: In SPR one partner is held on a chip, and binding of the other changes the refractive index at the surface.

The target in assay [2] is T1, full length human galectin-3 (hGal3), …. Put plainly: ELISA; recombinant hGal3 immobilized on a microtiter plate; dilution series of Fab; detection with goat anti-human-kappa-light-chain-IgG alkaline phosphatase conjugate. The note with it: both partners purified. Background: In an ELISA, binding on a coated surface is turned into a signal by an enzyme label.
Assay [3] concerns the target T2, hGal3 ND 8mer SPOT peptide no. 25 (Homo sapiens, UniProt P17931, N-terminal acetyl; C-terminus bound to a Gly-PEG500-derivatised cellulose membrane).
T2 construct: 8mer of the N-terminal domain of human galectin-3; contains the motif Ala-Pro-Pro-Gly-Ala-Tyr; also called spot no; 25; source: synthetic peptide, SPOT synthesis on cellulose membrane
T2 chain: APPGAYPG
As to the kind of experiment: peptide or protein array; SPOT array of N-acetylated 8mer peptides of the hGal3 ND on cellulose membrane; chimeric αhGal3-Fab-PAS200-Cy5.5, 2 µg ml^−1 in PBS/T0.01, 1 h, room temperature; fluorescence read-out. The note with it: both partners purified.

The target in assay [4] is T3, hGal3 ND 8mer SPOT peptide no. 29 (Homo sapiens, UniProt P17931, N-terminal acetyl; C-terminus bound to a Gly-PEG500-derivatised cellulose membrane).
T3 construct: 8mer of the N-terminal domain of human galectin-3; contains the motif Ala-Pro-Pro-Gly-Ala-Tyr; also called spot no; 29; source: synthetic peptide, SPOT synthesis on cellulose membrane
T3 chain: QAPPGAYP
The assay is described as above. The note with it: both partners purified.

The target in assay [5] is T4, hGal3 ND 8mer SPOT peptide no. 24 (Homo sapiens, UniProt P17931, N-terminal acetyl; C-terminus bound to a Gly-PEG500-derivatised cellulose membrane).
T4 construct: 8mer of the N-terminal domain of human galectin-3; contains the motif Ala-Pro-Pro-Gly-Ala-Tyr; also called spot no; 24; source: synthetic peptide, SPOT synthesis on cellulose membrane
T4 chain: GQAPPGAY
The assay is described as above. The note with it: both partners purified.

Assay [6] concerns the target T5, hGal3 on FRO82-1 thyroid cancer cells (Homo sapiens (FRO82-1 cells), UniProt P17931).
T5 construct: human galectin-3 as expressed by the anaplastic thyroid cancer cell line FRO82-1; also called hGal3 antigen at the cell surface; FRO82-1 TC cells (RRID: CVCL_6287); source: endogenous, on FRO82-1 anaplastic thyroid cancer cells
As to the kind of experiment: radioligand binding; saturation binding assay of the ^89Zr radiotracer on FRO82-1 cells; triplicate. The note with it: one partner purified.

Several values for one entry are separate records, joined by “and”; a condition that tells them apart may be missing. Identical values can stand only once.

B1: chimeric αhGal3-Fab (rat V-regions of mAb M3/38, human constant domains) (Fab, V domains shown)
VH: QIQLVQSGPELKKPGESVKISCKASGYTFTDYAIHWVKQAPGKGLKWMGWINTYTGKPIYADDFKGRFVFSLEASASTANLQISNLKNEDTATYLCARGTMMASLDYWGQGVMVTVSS
VL: DVVMTQTPVSLSLAIGQPASISCKSSQSLVHSDGKTYLSWILQRPGQSPKGLIYLVSKLDSGVPDRFSGSGSETEFTLKISRVEAEDLGVYYCWQATHFPLTFGSGTKLEIK
By Kd is commonly meant a measure of binding affinity in units of concentration. Regarding B1, the Kd in assay [1] was 0.29 nM; in assay [2], 1.3 nM and 1.2 nM.

B2: chimeric αhGal3-Fab-PAS200-Cy5.5 (Fab, V domains shown)
VH: QIQLVQSGPELKKPGESVKISCKASGYTFTDYAIHWVKQAPGKGLKWMGWINTYTGKPIYADDFKGRFVFSLEASASTANLQISNLKNEDTATYLCARGTMMASLDYWGQGVMVTVSS
VL: DVVMTQTPVSLSLAIGQPASISCKSSQSLVHSDGKTYLSWILQRPGQSPKGLIYLVSKLDSGVPDRFSGSGSETEFTLKISRVEAEDLGVYYCWQATHFPLTFGSGTKLEIK
Take B2: the binding result in assay [3], in assay [4] and in assay [5] was “binds” throughout.

B3: single point mutant "4NRY"(E46K) of the humanized αhGal3-Fab (Fab, V domains shown)
VH: QIQLVQSGAEVKKPGESLKISCKVSGYTFTDYAIHWVRQMPGKGLKWMGWINTYTGKPIYADDFKGQVIISLDKSINTAYLQWSSLKASDTAIYYCARGTMMASLDYWGQGTTVTVSS
VL: DVVLTQSPSSLSASVGDRVTITCKSSQSLVHSDGKTYLSWIQQKPGKAPKGLIYLVSKLDSGVPSRFSGSGSETDFTLTISSLQPEDSATYYCWQATHFPLTFGPGTKVDIR
With B3, in assay [2], the dissociation constant (Kd) worked out at 1.3 nM.

B4: GaletuzuFab-PAS200-Cy7 (Fab, V domains shown)
VH: QIQLVQSGAEVKKPGESLKISCKVSGYTFTDYAIHWVRQMPGKGLKWMGWINTYTGKPIYADDFKGQVIISLDKSINTAYLQWSSLKASDTAIYYCARGTMMASLDYWGQGTTVTVSS
VL: DVVMTQSPSSLSASVGDRVTITCKSSQSLVHSDGKTYLSWIQQKPGKAPKGLIYLVSKLDSGVPSRFSGSGSETDFTLTISSLQPEDSATYYCWQATHFPLTFGPGTKVDIR
B4: in assay [2], the dissociation constant (Kd) was determined as 1.6 nM.

B5: GaletuzuFab (final humanized αhGal3-Fab: "4NRY" with Lys(H46) and Met(L4)) (Fab, V domains shown)
VH: QIQLVQSGAEVKKPGESLKISCKVSGYTFTDYAIHWVRQMPGKGLKWMGWINTYTGKPIYADDFKGQVIISLDKSINTAYLQWSSLKASDTAIYYCARGTMMASLDYWGQGTTVTVSS
VL: DVVMTQSPSSLSASVGDRVTITCKSSQSLVHSDGKTYLSWIQQKPGKAPKGLIYLVSKLDSGVPSRFSGSGSETDFTLTISSLQPEDSATYYCWQATHFPLTFGPGTKVDIR
As for B5, the results for the Kd in assay [1] and in assay [2] were 0.34 nM and 1.3 nM, respectively.

B6: GaletuzuFab-PAS200-Dfo-^89Zr (Fab, V domains shown)
VH: QIQLVQSGAEVKKPGESLKISCKVSGYTFTDYAIHWVRQMPGKGLKWMGWINTYTGKPIYADDFKGQVIISLDKSINTAYLQWSSLKASDTAIYYCARGTMMASLDYWGQGTTVTVSS
VL: DVVMTQSPSSLSASVGDRVTITCKSSQSLVHSDGKTYLSWIQQKPGKAPKGLIYLVSKLDSGVPSRFSGSGSETDFTLTISSLQPEDSATYYCWQATHFPLTFGPGTKVDIR
The molecule B6 displayed a Kd in assay [6] of 15 nM.

B7: single point mutant "4NRY"(L4M) of the humanized αhGal3-Fab (Fab, V domains shown)
VH: QIQLVQSGAEVKKPGESLKISCKVSGYTFTDYAIHWVRQMPGKGLEWMGWINTYTGKPIYADDFKGQVIISLDKSINTAYLQWSSLKASDTAIYYCARGTMMASLDYWGQGTTVTVSS
VL: DVVMTQSPSSLSASVGDRVTITCKSSQSLVHSDGKTYLSWIQQKPGKAPKGLIYLVSKLDSGVPSRFSGSGSETDFTLTISSLQPEDSATYYCWQATHFPLTFGPGTKVDIR
Consider B7, for which, in assay [2], the Kd was determined as 1.5 nM.

B8: humanized αhGal3-Fab version "4NRY" (CDRs of M3/38 grafted on the framework of human mAb m66) (Fab, V domains shown)
VH: QIQLVQSGAEVKKPGESLKISCKVSGYTFTDYAIHWVRQMPGKGLEWMGWINTYTGKPIYADDFKGQVIISLDKSINTAYLQWSSLKASDTAIYYCARGTMMASLDYWGQGTTVTVSS
VL: DVVLTQSPSSLSASVGDRVTITCKSSQSLVHSDGKTYLSWIQQKPGKAPKGLIYLVSKLDSGVPSRFSGSGSETDFTLTISSLQPEDSATYYCWQATHFPLTFGPGTKVDIR
B8: the Kd in assay [2] was 2.3 nM and 3.6 nM.

B9: GaletuzuFab-PAS200-Dfo (Fab, V domains shown)
VH: QIQLVQSGAEVKKPGESLKISCKVSGYTFTDYAIHWVRQMPGKGLKWMGWINTYTGKPIYADDFKGQVIISLDKSINTAYLQWSSLKASDTAIYYCARGTMMASLDYWGQGTTVTVSS
VL: DVVMTQSPSSLSASVGDRVTITCKSSQSLVHSDGKTYLSWIQQKPGKAPKGLIYLVSKLDSGVPSRFSGSGSETDFTLTISSLQPEDSATYYCWQATHFPLTFGPGTKVDIR
On to B9, for which, in assay [2], the Kd was determined as 1.9 nM.
